From patent US10159685B2, “Vascular calcification” (Cambridge Enterprise Limited, priority 2016, dated 2018) come the findings set out here.

SMILES strings stand for the structures. Like-named read-outs stand apart in the source and are kept apart here. Marks after values point to notes of the source that are not given here.

Series [1] concerns human monocyte-macrophages (HMMs). Put plainly: MTT toxicity assay, HMMs, seven days (Example 3). The note with it: at a concentration of 100 μM, 7 days.
The subject of series [2] is bovine vascular smooth muscle cells (bVSMCs). Format: cell-based. As to conditions: 7 days, mean of three experiments. As to the method:
The toxicity of the identified compounds to bovine VSMCs was measured using the MTT assay, which measures the activity of dehydrogenase enzymes of live cells. This assay can pick up both cell death and proliferation.
Then, the MTT assay was performed.

Regarding `OCCN(CCO)c1nc(N2CCCCC2)c2nc(N(CCO)CCO)nc(N3CCCCC3)c2n1` [Dipyridamol, dipyridamol], the “Toxicity to HMMs (in words)” value in series [1] was “relatively innocuous”. The “Cell viability of bVSMCs after seven days (MTT signal, relative to control)” value in series [2] (0.5 uM) is listed as 74.66*; in series [2] (1 uM) it was 74.62*; in series [2] (2 uM), 74.09*; in series [2] (5 uM) it was 76.71*; in series [2] (10 uM), 87.97*; in series [2] (20 uM) it was 99.34. Besides, the “Cell viability of bVSMCs after seven days (MTT signal, relative to control)” value in series [2] (50 uM) was 39.52*; in series [2] (100 uM) it was 11.34*.
